Test results reported in patent US4411908A, “Imidazoline derivatives as presynaptic α2 -adrenoreceptor antagonists” (priority 1981, dated 1983).

Target: T1, postsynaptic α-adrenoreceptor (anococcygeus muscle) (Rattus norvegicus, UniProt P43140)
T1 construct: compound giving 50% maximum contraction in this instance, of the anococcygeus muscle; from tissue; host or cells: isolated anococcygeus muscle (rat)
T1 sequence (P43140 1-466): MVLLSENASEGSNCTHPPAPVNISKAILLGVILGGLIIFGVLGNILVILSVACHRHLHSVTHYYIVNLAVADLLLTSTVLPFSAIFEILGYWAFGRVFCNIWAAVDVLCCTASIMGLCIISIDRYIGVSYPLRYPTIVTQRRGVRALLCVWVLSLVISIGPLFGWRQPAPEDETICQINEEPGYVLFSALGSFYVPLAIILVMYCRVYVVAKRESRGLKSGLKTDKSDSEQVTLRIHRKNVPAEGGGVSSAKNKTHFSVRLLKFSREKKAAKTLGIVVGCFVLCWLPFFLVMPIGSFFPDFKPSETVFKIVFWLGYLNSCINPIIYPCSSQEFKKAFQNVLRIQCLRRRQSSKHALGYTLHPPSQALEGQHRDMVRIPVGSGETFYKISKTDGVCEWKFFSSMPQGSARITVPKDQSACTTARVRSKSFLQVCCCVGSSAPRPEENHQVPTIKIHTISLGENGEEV
Assay: Postsynaptic α-adrenoreceptor agonist activity, isolated anococcygeus muscle
Type: cell-based

## Clc1cccc(Cl)c1N=C1NCCN1 [Clonidine, reference compound]
  EC50: 31.6 nM
